# Source: US6855712B2, “Combination of benzoquinazoline antifolates and protecting agents” (SmithKline Beecham Corporation, priority 1992, dated 2005)
# Read-outs that look alike come from different tables or passages of the source.
# Tested on: beagle dogs
# Assay type: in vivo
# Details: 10 mg/kg Compound A
# Method: The thymidylate synthase inhibitor Compound A (8 mg/kg) was lethal when administered to beagle dogs as an iv bolus for five consecutive days. In contrast Compound A at 20 mg/kg was not lethal when given as an iv bolus 30 minutes after oral administration of folic acid at 50 mg/kg. Similarly, five consecutive days of 10 mg/kg of Compound A iv was lethal when given alone.
smiles,measurement,setting,value
"Cc1nc2ccc3ccc(CNc4ccc5c(c4)CN([C@@H](CCC(=O)O)C(=O)O)C5=O)cc3c2c(=O)[nH]1 [Compound A, (S)-2-(5-(((1,2-Dihydro-3-methyl-1-oxobenzo[f]quinazolin-9-yl)methyl)amino)-1-oxo-2-isoindolinyl)glutaric acid]",Dog tox.,folic acid 0 mg/kg,lethal
same,Dog tox.,leucovorin 0 mg/kg,Lethal
